Data published in PubChem BioAssay AID493012 (Sanford-Burnham Center for Chemical Genomics, 2011).
This is a selection; strong and weak results do not stand in their true shares. The source made the active and inactive calls.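 Rule for the calls: active = inhibition of at least 40% at 20 µM, with no more than 30% in the related APOBEC3A deaminase screen; inactive = the rest.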

Protein sequences, listed by entry. Tags and fused reporters are not part of them.
UniProt Q9HC16, whole entry: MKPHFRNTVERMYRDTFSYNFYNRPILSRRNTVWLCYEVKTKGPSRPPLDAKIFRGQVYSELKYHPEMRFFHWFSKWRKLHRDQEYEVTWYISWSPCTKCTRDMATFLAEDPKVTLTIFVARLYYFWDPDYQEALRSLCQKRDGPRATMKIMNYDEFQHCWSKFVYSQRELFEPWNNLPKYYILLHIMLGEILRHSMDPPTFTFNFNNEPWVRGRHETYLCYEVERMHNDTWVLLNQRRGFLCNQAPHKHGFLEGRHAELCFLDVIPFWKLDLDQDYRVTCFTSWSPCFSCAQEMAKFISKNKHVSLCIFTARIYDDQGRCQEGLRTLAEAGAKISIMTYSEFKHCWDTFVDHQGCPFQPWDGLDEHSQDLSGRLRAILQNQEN

biological target: DNA dC->dU-editing enzyme APOBEC-3G (Homo sapiens) (UniProt Q9HC16); experiment: APOBEC3G DNA deaminase inhibitors, primary screen, biochemical, fluorescence, single-stranded DNA substrate, uHTS (AID 493012); conditions: recombinant A3G, ssDNA deamination FAM/TAMRA fluorescence; at 20 µM; hits give high values;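 note: plate controls were DMSO wells with A3G for no effect and wells lacking A3G enzyme for full effect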

SMILES | inhibition
O=C(NCC1(N2CCOCC2)CCCCC1)c1cc(F)c(F)cc1Cl | inactive: -3.23%
COc1cc(OC)c(C(=O)NCC2(N(C)C)CCCCC2)cc1OC | inactive: -8.74%
CN(C)c1cccc(C(=O)NCC2(N3CCCCC3)CCCCC2)c1 | inactive: 0.447%
COc1ccc(CN(CCCl)CCCl)cc1Cl | inactive: -6.78%
CC(C)c1ccc(NC2CCN(C(=O)OC(C)(C)C)CC2)cc1 | inactive: -10.6%
CN1CCC(Nc2cccc(F)c2)CC1 | inactive: -4.48%
O=C(NCC1(N2CCCCC2)CCCCC1)c1cncc(Br)c1 | inactive: 1.12%
O=C(NCC1(N2CCCCC2)CCCCC1)c1cccc([N+](=O)[O-])c1 | inactive: -5.24%
CSc1ccc(C(=O)NCC2(N3CCOCC3)CCCCC2)cc1 | inactive: -5.46%
N#CC1(Nc2ccccc2)CCN(CCc2ccccc2)CC1 | inactive: -1.77%
CCN1CCC(Nc2ccc(Cl)cc2)CC1 | inactive: -6.15%
O=C(NCC1(N2CCCCC2)CCCCC1)c1ccc(OC(F)F)cc1 | inactive: -8.69%
COc1ccc(NC2CCN(C(=O)OC(C)(C)C)CC2)cc1 | inactive: -2.86%
CC(C)c1ccc(C(=O)NCC2(N3CCOCC3)CCCCC2)cc1 | inactive: 7.28%
CN1CCN(CCOC(=O)C(O)(c2ccccc2)c2ccccc2)CC1 | inactive: -6.09%
O=C(NCC1(N2CCOCC2)CCCCC1)c1cc(=O)[nH]c2ccccc12 | inactive: -9.34%
COc1cc(C(=O)NCC2(N3CCCCC3)CCCCC2)ccc1OC(F)F | inactive: 0.265%
O=C(NCC1(N2CCCCC2)CCCCC1)c1cccc(C(F)(F)F)c1 | inactive: -7.71%
CCOC(=O)N1CCC(Nc2ccc(F)cc2)CC1 | inactive: 1.49%
COc1ccc(NC2CCN(CCc3ccccc3)CC2)c(OC)c1 | inactive: -2.28%
CCCCOc1ccc(C(=O)NCC2(N3CCOCC3)CCCCC2)cc1 | inactive: 6.46%
O=C(NCC1(N2CCCCC2)CCCCC1)c1ccc(F)cc1 | inactive: -3.2%
CCOc1ccc(C)cc1CN(CCCl)CCCl | inactive: -7.66%
Cc1ccc(OCC(C)C)c(CN(CCCl)CCCl)c1 | inactive: -5.71%
CCOC(=O)N1CCC(Nc2cccc(C)c2)CC1 | inactive: -5.2%
CSc1ccccc1C(=O)NCC1(N2CCCCC2)CCCCC1 | inactive: -4.73%
O=C(NCC1(N2CCCCC2)CCCCC1)c1cccs1 | inactive: -8.08%
O=C(NCC1(N2CCCCC2)CCCCC1)c1ccc(=O)[nH]c1 | inactive: -2.41%
COc1ccc(C(=O)NCC2(N3CCCCC3)CCCCC2)c(OC)c1OC | inactive: -6.02%
